Patent publication US20210128511A1, “PRODRUG COMPOSITIONS AND METHODS OF TREATMENT” (AQUESTIVE THERAPEUTICS, INC., priority 2019, published 2021)

Columns and labels:
[1] = IM and SC administration of L-Dipivefrin compared to Epipen, PK; type: in vivo, male Yucatan miniature swine
Description: Yucatan minipigs were weighed and in the morning of the study, the vascular access port (VAP) of each animal was checked for proper functioning. Minipigs with viable VAP were removed from the home cage and placed in a holding sling.
At each specified time-point, 6 mL of whole blood was collected into blood collection tubes containing anticoagulant and stabilizer. Protease inhibitor cocktail was added and the tubes were inverted several times for mixing.

[2] = Intramuscular study in minipig for prodrugs, epinephrine pharmacokinetic profile; type: in vivo, male Yucatan miniature swine; conditions: IM 2 mg/animal, up to 4 hrs
Description: Yucatan minipigs (n=4 males per group) were weighed and weights were recorded. The morning of the study, the vascular access port (VAP) of each animal was checked for proper functioning. Minipigs with viable VAP were removed from the home cage and placed in a holding sling. The animals were fasted overnight prior to dose administration and for the duration of PK blood collections.
All the formulations were prepared fresh on the day of dosing and maintained on wet ice until dosing. The dose was injected in the rear hind limb. Prior to administering, the plunger of the syringe was aspirated and observed for any blood that may flow into the syringe. If no blood was observed, it was verified that the needle was in proper placement, and the test articles were administered.
At each specified time-point, 6 mL of whole blood was collected into blood collection tubes containing K2EDTA as the anticoagulant and sodium metabisulfite as stabilizer. Sodium metabisulfite was at a concentration of 8.9 mM, pH 3 (60 μL/6 mL of whole blood of the 890 mM stock solution). SigmaFast (600 μL of SigmaFast 1× solution to 6 mL of whole blood) was added immediately to the tubes as the enzyme arresting agent. […]
The dose was injected in the rear hind limb. […] All blood samples were centrifuged and the resulting plasma was analyzed for epinephrine using LC-MS/MS method.

[3] = Stability in sodium metabisulfite; type: physicochemical
From the text: A prodrug design can provide an alternative for the delivery of epinephrine, and indeed, for other active pharmaceutical ingredients. A prodrug can present improved hydrophobicity, better permeation, dose reduction, and enhanced speed of absorption. It can also provide alternative compositions with unique stability profiles. […] A prodrug that is not absorbed in the stomach can also avoid, minimize or eliminate the side effect of epigastric pain. Moreover, a prodrug can result in reduced adrenergic receptor binding, resulting in reduced variability of vasoconstriction and more stability. An expected disadvantage for the epinephrine prodrug approach is that it often requires conversion in the blood, can cause delay in epinephrine exposure as a function of its conversion rate, and since the molecular weight is often higher than that of the active pharmaceutical ingredient, it can also require a higher drug loading (e.g. if the prodrug is twice the molecular weight of the active pharmaceutical ingredient, it can require twice the drug loading).

## Dipivefrin [L-Dipivefrin]
[1]; 0.6 mg
  IM vs SC vs EpiPen comparison: No apparent difference
[1]; 2 mg dose
  plasma Epinephrine levels, SC vs IM administration: higher levels of Epinephrine
[1]; 0.6, 1 and 2 mg
  plasma epinephrine exposure (AUC) after IM and SC administrations: Dose dependent effects
[1]; IM 0.6 mg
  DIPI AUC 0-t: 2.6 ng·min/mL
  DIPI Cmax (mean): 0.285 ng/mL
  DIPI Tmax: 5 min
[1]; IM 1 mg
  DIPI AUC 0-t: 15.63 ng·min/mL
  DIPI Cmax (mean): 0.632 ng/mL
  DIPI Tmax: 10 min
[1]; IM 2 mg
  DIPI AUC 0-t: 29.79 ng·min/mL
  DIPI Cmax (mean): 0.882 ng/mL
  DIPI Tmax: 5 min
[1]; IM and SC compared to Epipen
  dose equivalent to 0.3 mg epinephrine: 0.6 mg
[1]; IM and SC vs Epipen
  onset of epinephrine response: very similar in both IM and SC administrations and comparable to Epipen
[1]; SC 0.6 mg
  DIPI AUC 0-t: 18.25 ng·min/mL
  DIPI Cmax (mean): 0.602 ng/mL
  DIPI Tmax: 17 min
[1]; SC 1 mg
  DIPI AUC 0-t: 80.14 ng·min/mL
  DIPI Cmax (mean): 2.34 ng/mL
  DIPI Tmax: 10 min
[1]; SC 2 mg
  DIPI AUC 0-t: 197.6 ng·min/mL
  DIPI Cmax (mean): 5.2 ng/mL
  DIPI Tmax: 17 min
[1]; all doses tested
  conversion to Epinephrine after IM and SC administrations: Conversion of Dipivefrin to Epinephrine was seen
[1]; all doses tested except 2 mg
  plasma Epinephrine levels after IM and SC administrations: Comparable plasma Epinephrine levels
[1]; epinephrine plasma levels, statistically significant only at 2 mg
  dose response in AUC and Cmax for SC vs. IM: ~2.5 ×
[2]
  sufficient plasma levels: 0.5 ng/mL
[3]
  stability in sodium metabisulfite: unstable
